System: isolated rat bladder
Conditions: isolated rat bladder strips, carbachol concentration response curve

With `O=C(OCC12CC1CN(Cc1ccccc1)C2)C(O)(c1ccccc1)C1CCCC1` (centres unmarked) the “Functional Assay pKB” value was 7.51 ± 0.33.

For `O=C(OCC12CC1CN(Cc1ccccc1)C2)C(O)(c1ccccc1)C1CCCCC1` (centres unmarked), the “Functional Assay pKB” value was 7.74 ± 0.001.
